Only a part is listed here, and it is no random draw. The source made the active and inactive calls. Rule for the calls: active = hit-call score of the fitted dose curve at least 0.9, where 1 is the maximum; inactive = score below 0.9.
Columns and labels:
[1] = ATG_E_Box_CIS: Attagene CIS-FACTORIAL HepG2 Assay for human Enhancer Box (E-box) (AID 2282936); conditions: HepG2 E-box cis-reporter transcription, actives raise or lower the signal
Summary of the method: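 Cells: HepG2 (human liver), transient MRTU transfection. Exposure 24 h. RNA → oligo(dT) RT → PCR → 6-FAM label → HpaI → CE. Activity fitted both directions relative to DMSO.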

Protein sequences, listed by entry. Tags and fused reporters are not part of them.
UniProt Q96RI1, whole entry: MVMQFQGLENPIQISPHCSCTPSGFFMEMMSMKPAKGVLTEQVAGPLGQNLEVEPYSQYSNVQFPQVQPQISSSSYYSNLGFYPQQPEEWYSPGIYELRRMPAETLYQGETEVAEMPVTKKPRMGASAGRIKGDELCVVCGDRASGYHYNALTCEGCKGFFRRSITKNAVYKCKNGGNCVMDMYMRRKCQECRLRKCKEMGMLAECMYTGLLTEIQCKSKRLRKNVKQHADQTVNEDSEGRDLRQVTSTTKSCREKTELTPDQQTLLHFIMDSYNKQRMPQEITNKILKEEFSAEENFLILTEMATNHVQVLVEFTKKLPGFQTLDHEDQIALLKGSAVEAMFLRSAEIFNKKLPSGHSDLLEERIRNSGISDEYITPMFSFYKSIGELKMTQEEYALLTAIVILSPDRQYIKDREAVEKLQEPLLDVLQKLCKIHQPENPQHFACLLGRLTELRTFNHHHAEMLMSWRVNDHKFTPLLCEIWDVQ
UniProt Q16665, whole entry: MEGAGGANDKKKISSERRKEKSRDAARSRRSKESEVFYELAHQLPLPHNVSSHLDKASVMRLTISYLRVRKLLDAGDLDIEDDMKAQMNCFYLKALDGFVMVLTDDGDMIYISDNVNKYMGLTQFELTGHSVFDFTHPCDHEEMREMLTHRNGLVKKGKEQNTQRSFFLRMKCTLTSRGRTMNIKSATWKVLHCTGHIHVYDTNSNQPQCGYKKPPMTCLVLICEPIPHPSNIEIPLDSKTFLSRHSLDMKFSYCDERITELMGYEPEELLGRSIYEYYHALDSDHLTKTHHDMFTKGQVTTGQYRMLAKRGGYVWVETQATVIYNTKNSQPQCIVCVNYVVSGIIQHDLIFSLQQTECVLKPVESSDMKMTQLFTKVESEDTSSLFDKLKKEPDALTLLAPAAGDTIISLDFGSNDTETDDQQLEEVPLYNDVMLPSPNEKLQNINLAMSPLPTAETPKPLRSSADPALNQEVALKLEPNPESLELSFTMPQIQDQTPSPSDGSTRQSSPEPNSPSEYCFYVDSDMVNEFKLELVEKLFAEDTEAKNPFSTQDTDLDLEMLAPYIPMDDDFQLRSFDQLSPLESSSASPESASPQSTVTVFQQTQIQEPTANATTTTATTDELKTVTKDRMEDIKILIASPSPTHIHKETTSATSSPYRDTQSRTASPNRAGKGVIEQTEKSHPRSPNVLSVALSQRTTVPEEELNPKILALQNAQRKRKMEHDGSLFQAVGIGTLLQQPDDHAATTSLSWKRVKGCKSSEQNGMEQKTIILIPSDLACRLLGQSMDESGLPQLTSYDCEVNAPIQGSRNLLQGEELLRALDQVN
UniProt Q9UBC0, whole entry: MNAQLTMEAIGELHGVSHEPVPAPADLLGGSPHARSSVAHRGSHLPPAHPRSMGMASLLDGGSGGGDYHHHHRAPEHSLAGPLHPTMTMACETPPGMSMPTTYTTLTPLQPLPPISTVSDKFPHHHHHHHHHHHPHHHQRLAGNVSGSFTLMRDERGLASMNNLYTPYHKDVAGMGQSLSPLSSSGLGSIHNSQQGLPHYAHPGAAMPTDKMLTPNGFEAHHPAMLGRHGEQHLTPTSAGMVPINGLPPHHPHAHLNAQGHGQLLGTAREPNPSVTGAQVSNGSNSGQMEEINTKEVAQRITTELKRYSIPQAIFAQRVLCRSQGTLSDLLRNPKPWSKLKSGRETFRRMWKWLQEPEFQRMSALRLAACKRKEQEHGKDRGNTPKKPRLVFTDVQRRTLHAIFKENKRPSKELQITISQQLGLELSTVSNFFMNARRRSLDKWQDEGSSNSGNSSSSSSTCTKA
UniProt Q00613, whole entry: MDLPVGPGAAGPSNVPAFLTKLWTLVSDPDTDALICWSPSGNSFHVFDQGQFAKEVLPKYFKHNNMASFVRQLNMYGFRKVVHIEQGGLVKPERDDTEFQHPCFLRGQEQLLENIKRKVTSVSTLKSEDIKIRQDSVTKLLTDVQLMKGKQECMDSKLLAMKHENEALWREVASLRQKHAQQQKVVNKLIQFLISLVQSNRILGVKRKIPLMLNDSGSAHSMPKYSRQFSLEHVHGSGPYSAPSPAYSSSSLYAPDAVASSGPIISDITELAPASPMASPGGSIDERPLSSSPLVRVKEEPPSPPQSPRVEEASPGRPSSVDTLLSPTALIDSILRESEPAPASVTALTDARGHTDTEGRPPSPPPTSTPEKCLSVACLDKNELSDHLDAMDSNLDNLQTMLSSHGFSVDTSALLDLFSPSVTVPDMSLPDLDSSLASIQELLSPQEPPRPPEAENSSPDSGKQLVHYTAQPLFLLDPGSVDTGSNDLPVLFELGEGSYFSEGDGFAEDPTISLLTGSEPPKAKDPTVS
UniProt P08047, whole entry: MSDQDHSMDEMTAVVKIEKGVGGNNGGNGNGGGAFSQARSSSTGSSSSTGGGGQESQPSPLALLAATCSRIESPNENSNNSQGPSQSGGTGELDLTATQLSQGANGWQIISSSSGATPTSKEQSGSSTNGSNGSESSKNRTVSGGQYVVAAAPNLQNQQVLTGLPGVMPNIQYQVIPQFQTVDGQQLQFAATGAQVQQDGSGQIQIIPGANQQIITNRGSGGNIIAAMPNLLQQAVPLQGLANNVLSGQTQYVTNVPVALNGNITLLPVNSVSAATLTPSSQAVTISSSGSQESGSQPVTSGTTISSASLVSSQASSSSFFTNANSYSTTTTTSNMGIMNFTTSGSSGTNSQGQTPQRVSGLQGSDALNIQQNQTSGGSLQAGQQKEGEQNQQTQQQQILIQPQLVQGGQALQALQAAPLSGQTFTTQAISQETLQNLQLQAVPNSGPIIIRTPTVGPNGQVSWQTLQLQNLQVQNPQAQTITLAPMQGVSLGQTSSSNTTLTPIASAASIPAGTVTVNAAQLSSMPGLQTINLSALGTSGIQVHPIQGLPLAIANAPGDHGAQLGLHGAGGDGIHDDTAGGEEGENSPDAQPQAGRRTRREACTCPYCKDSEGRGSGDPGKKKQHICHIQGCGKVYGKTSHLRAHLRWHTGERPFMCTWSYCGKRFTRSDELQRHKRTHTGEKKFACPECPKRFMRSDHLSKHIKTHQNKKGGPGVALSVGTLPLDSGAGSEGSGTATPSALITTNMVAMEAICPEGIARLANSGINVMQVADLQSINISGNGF

[2] = ATG_M_61_CIS: Attagene CIS-FACTORIAL HepG2 Assay for M61 Transcription Factor (Internal Marker) (AID 2282937); conditions: HepG2 Attagene CIS-FACTORIAL M61 internal marker reporter; actives raise or lower the signal
Summary of the method: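 This endpoint serves as an internal background control within a multiplexed HepG2 cis-reporter panel. Cells are exposed for 24 h; reporter mRNA is amplified, fluorescently labelled and sized by capillary electrophoresis, with DMSO as negative control.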

[3] = ATG_EGR_CIS: Attagene CIS-FACTORIAL HepG2 Assay for human Early Growth Response 1 (EGR1) (AID 2282938); conditions: HepG2 Attagene CIS-FACTORIAL EGR reporter mRNA; actives raise or lower the signal
Summary of the method: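 HepG2, transient MRTU transfection (cis promoters), 24 h compound. RNA → RT (oligo-dT) → PCR → 6-FAM labelling → HpaI cut → CE fluorescence. Bidirectional fit, DMSO baseline.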

[4] = ATG_M_19_CIS: Attagene CIS-FACTORIAL HepG2 Assay for M19 Transcription Factor (Internal Marker) (AID 2282939); conditions: HepG2 Attagene CIS-FACTORIAL M19 internal marker reporter; actives raise or lower the signal
Summary of the method: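 Transfect HepG2 with MRTU reporter library → dose chemical, 24 h → isolate total RNA, reverse-transcribe with oligo(dT) → PCR, 6-FAM label, HpaI cut (2 h, 37 C) → capillary electrophoresis. Bidirectional fit vs DMSO.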

[5] = ATG_ERE_CIS: Attagene CIS-FACTORIAL HepG2 Assay for Estrogen Response Element (ERE) (AID 2282940); conditions: HepG2 ERE cis-reporter, Attagene RNA transcript; actives raise or lower the signal
Summary of the method: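 Transient MRTU transfection of human HepG2; cis-element promoters; 24 h dosing; total RNA → RT (oligo dT) → PCR → 6-FAM primer extension → HpaI digest → CE fluorescence. Bidirectional fit, DMSO baseline.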

[6] = ATG_Ets_CIS: Attagene CIS-FACTORIAL HepG2 Assay for human Erythroblast Transformation Specific (ETS) (AID 2282941); conditions: HepG2 ETS cis-reporter transcription, actives raise or lower the signal
Summary of the method: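 After transient cis-reporter transfection, HepG2 cells receive test chemical for 24 h. Reporter mRNA levels, measured by RT-PCR and capillary electrophoresis fluorescence, are analysed bidirectionally relative to the DMSO baseline.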

[7] = ATG_FoxO_CIS: Attagene CIS-FACTORIAL HepG2 Assay for human Forkhead box O (FoxO) (AID 2282943); conditions: HepG2 Attagene cis-reporter, FoxO element, mRNA; actives raise or lower the signal
Summary of the method: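 Endogenous transcription factor activity read from multiplexed cis-promoter reporter transcripts in transiently transfected HepG2, 24 h after dosing. Reporter RNA measured via RT-PCR plus capillary electrophoresis of FAM-labeled products; gain or loss relative to DMSO.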

[8] = ATG_GLI_CIS: Attagene CIS-FACTORIAL HepG2 Assay for human Zinc Finger Protein GLI1 (AID 2282945); conditions: HepG2, Attagene cis-factorial reporter mRNA, GLI element; actives raise or lower the signal
Summary of the method: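 Bidirectional curve fits relative to DMSO, using reporter mRNA levels from RT-PCR plus capillary electrophoresis. Cells were HepG2 transiently carrying cis-regulated reporter constructs, harvested 24 h after dosing.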

[9] = molecular target: Bile acid receptor (Homo sapiens) (UniProt Q96RI1); test: ATG_IR1_CIS: Attagene CIS-FACTORIAL HepG2 Assay for human Nuclear Receptor Subfamily 1 Group H Member 4 (NR1H4), IR1 submotif (AID 2282946); conditions: IR1 reporter transcription, actives raise or lower the signal
Summary of the method: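 Cells (human HepG2) carry transiently transfected cis-promoter reporter transcription units. Compounds are incubated 24 h, total RNA is reverse-transcribed and amplified, and labelled fragments are resolved by capillary electrophoresis. Curves use DMSO as baseline.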

[10] = ATG_GRE_CIS: Attagene CIS-FACTORIAL HepG2 Assay for human Glucocorticoid Response Elements (GRE) (AID 2282947); conditions: HepG2 GRE cis-reporter, Attagene multiplex mRNA; actives raise or lower the signal
Summary of the method: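 Transient MRTU transfection of human HepG2 liver cells; cis-regulated reporters report endogenous factors. 24 h dosing → RNA isolation → RT-PCR → 6-FAM primer extension → HpaI cut → CE fragment analysis. Bidirectional fit, DMSO negative control.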

[11] = ATG_ISRE_CIS: Attagene CIS-FACTORIAL HepG2 Assay for human Interferon Regulatory Factor 1 (IRF1) binding to an Interferon-Stimulated Response Element (ISRE) (AID 2282948); conditions: HepG2 ISRE cis-reporter (Attagene), mRNA transcription readout; actives raise or lower the signal
Summary of the method: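 Quantitation relies on labelled RT-PCR fragments separated by capillary electrophoresis. Human HepG2 cells bearing cis-promoter reporter constructs were treated 24 h; DMSO served as baseline for bidirectional fitting.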

[12] = ATG_M_32_CIS: Attagene CIS-FACTORIAL HepG2 Assay for M32 Transcription Factor (Internal Marker) (AID 2282949); conditions: HepG2 Attagene cis-factorial M32 reporter, mRNA; actives raise or lower the signal;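 note: background control marker of the multiplexed CIS panel rather than a real target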
Summary of the method: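 Fluorescent capillary electrophoresis peaks of HpaI-digested, FAM-labelled RT-PCR reporter products give the signal. Source: transiently transfected human liver HepG2 cells, 24 h after chemical dosing; bidirectional fitting against DMSO.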

[13] = molecular target: Hypoxia-inducible factor 1-alpha (Homo sapiens) (UniProt Q16665); test: ATG_HIF1a_CIS: Attagene CIS-FACTORIAL HepG2 Assay for human Hypoxia Inducible Factor 1 (HIF1A) (AID 2282951); conditions: HepG2 Attagene cis-factorial HIF1a reporter transcription; actives raise or lower the signal
Summary of the method: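 HepG2, transient cis-reporter library, 24 h dosing. RNA → RT (oligo dT) → PCR → 6-FAM primer extension → HpaI → CE. Bidirectional curve fit vs DMSO.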

[14] = molecular target: Hepatocyte nuclear factor 6 (Homo sapiens) (UniProt Q9UBC0); test: ATG_HNF6_CIS: Attagene CIS-FACTORIAL HepG2 Assay for human Hepatocyte Nuclear Factor 6 (HNF6) (AID 2282952); conditions: HepG2 Attagene cis-factorial HNF6 reporter transcription; actives raise or lower the signal
Summary of the method: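 HepG2, transient MRTU transfection (cis promoters); 24 h chemical exposure; total RNA → oligo(dT) RT → PCR → 6-FAM labelling → HpaI cut → CE; bidirectional fit vs DMSO.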

[15] = molecular target: Heat shock factor protein 1 (Homo sapiens) (UniProt Q00613); test: ATG_HSE_CIS: Attagene CIS-FACTORIAL HepG2 Assay for human Heat Shock Transcription Factor 1 (HSE) (AID 2282953); conditions: HepG2 HSE cis-reporter, Attagene RNA transcription; actives raise or lower the signal
Summary of the method: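 HepG2, transient MRTU transfection, cis-promoter reporters (endogenous TF activity). 24 h compound. RNA → oligo(dT) RT → PCR → 6-FAM primer extension → HpaI cut → CE. Bidirectional fit vs DMSO.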

[16] = ATG_MRE_CIS: Attagene CIS-FACTORIAL HepG2 Assay for human Metal Responsive Element (MRE) (AID 2282954); conditions: HepG2 MRE cis-reporter transcription, Attagene multiplex; actives raise or lower the signal
Summary of the method: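 Transient MRTU transfection of HepG2 (FuGene 6); 24 h dosing; total RNA → oligo(dT) RT, PCR, 6-FAM primer extension, HpaI cut, CE. Bidirectional fit vs DMSO.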

[17] = ATG_PBREM_CIS: Attagene CIS-FACTORIAL HepG2 Assay for human Phenobarbital-responsive Enhancer Module (PBREM) (AID 2282955); conditions: HepG2 PBREM cis-reporter, Attagene multiplexed transcription; actives raise or lower the signal
Summary of the method: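 HepG2, transient MRTU transfection, 24 h dosing; RNA → oligo(dT) RT → PCR → 6-FAM extension → HpaI → CE. Bidirectional fit vs DMSO.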

[18] = ATG_PXRE_CIS: Attagene CIS-FACTORIAL HepG2 Assay for human Pregnane X Receptor Element (PXRE) (AID 2282957); conditions: HepG2 Attagene CIS-FACTORIAL PXRE reporter, mRNA; actives raise or lower the signal
Summary of the method: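 Transfect HepG2 with MRTUs (cis promoter elements); dose chemical, incubate 24 h; isolate RNA, RT with oligo(dT), PCR, 6-FAM label, HpaI cut, CE. Gain/loss fit vs DMSO.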

[19] = ATG_PPRE_CIS: Attagene CIS-FACTORIAL HepG2 Assay for human Peroxisome Proliferator-activated Response Element (PPRE) (AID 2282958); conditions: HepG2 PPRE cis-element reporter, Attagene transcription factor profiling; actives raise or lower the signal
Summary of the method: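 Transcript-level reporter induction in transfected HepG2 cells after 24 h chemical exposure, quantified by fluorescence from RT-PCR products separated by capillary electrophoresis.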

[20] = molecular target: Transcription factor Sp1 (Homo sapiens) (UniProt P08047); test: ATG_Sp1_CIS: Attagene CIS-FACTORIAL HepG2 Assay for human Specificity Protein 1 (Sp1) (AID 2282961); conditions: HepG2 Sp1 cis-reporter transcription, actives raise or lower the signal
Summary of the method: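 Measures mRNA induction of an Sp1-linked reporter in HepG2 cells 24 h post-dosing. Multiplexed reporters read by RT-PCR and capillary electrophoresis; DMSO serves as negative control and baseline.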

Measured: AC50

Cc1c([N+](=O)[O-])cccc1[N+](=O)[O-]
inactive: [1] | [2] | [3] | [4] | [5] | [6] | [7] | [8] | [9] | [10] | [11] | [12] | [13] | [14] | [15] | [16] | [17] | [19] | [20]
active: [18] 52.1 µM

O=[N+]([O-])OCC(CO[N+](=O)[O-])(CO[N+](=O)[O-])CO[N+](=O)[O-]
inactive: [1] | [2] | [3] | [4] | [6] | [7] | [8] | [9] | [10] | [11] | [12] | [13] | [14] | [15] | [16] | [17] | [18] | [19] | [20]

Cc1ccc([N+](=O)[O-])cc1[N+](=O)[O-]
inactive: [1] | [2] | [3] | [4] | [5] | [6] | [7] | [8] | [10] | [11] | [12] | [13] | [14] | [15] | [16] | [17] | [18] | [19] | [20]

CC(C)OP(C)(=O)OC(C)C
inactive: [1] | [2] | [3] | [4] | [5] | [6] | [7] | [8] | [10] | [11] | [12] | [13] | [14] | [15] | [16] | [17] | [18] | [19] | [20]

CN(C)CCCl
inactive: [1] | [2] | [3] | [4] | [5] | [6] | [7] | [8] | [9] | [10] | [11] | [12] | [13] | [14] | [15] | [16] | [17] | [18] | [19] | [20]

CC(C)N(CCO)C(C)C
inactive: [1] | [2] | [3] | [4] | [5] | [6] | [7] | [8] | [9] | [10] | [11] | [12] | [13] | [14] | [15] | [16] | [17] | [18] | [19] | [20]

Source: PubChem BioAssay (EPA / NIEHS)
